## Binding of CDR-mutated scFvs to a peptide of the spike HR2 region

Target peptide (SARS-CoV-2 spike, HR2 region): PDVDLGDISGINAS

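Phage display of a naive human antibody library on the peptide gave the parent. The variants were designed computationally from a first round of random CDR variants and then made and measured. Group labels follow the data file (Ctrl: baseline library sampled from a position-specific scoring matrix, with some repeated check sequences; Rand: our label for a block that the file lists under HC and that is probably the random mutants of the ten best first-round binders; En: ensemble of fine-tuned language models; GP: Gaussian process model; GPLM: also part of the Gaussian process libraries; HC: hill climbing; Gen: genetic algorithm; Gibbs: Gibbs sampling; a sequence that several methods proposed may carry one label only). Affinity was read by AlphaSeq, a pooled yeast mating assay with surface-displayed partners. The frequency of each diploid, read from paired DNA barcodes, reflects how well the two displayed proteins bind. Scores were corrected for input abundance and mapped to Kd with protein pairs of known affinity run in the same pool. Each pool was mated in six replicate cultures.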

Ab-14 is the parent antibody, in scFv form: VH, then a 15-residue (Gly4Ser)3 linker, then VL. The light chain is unchanged in all variants.
VH: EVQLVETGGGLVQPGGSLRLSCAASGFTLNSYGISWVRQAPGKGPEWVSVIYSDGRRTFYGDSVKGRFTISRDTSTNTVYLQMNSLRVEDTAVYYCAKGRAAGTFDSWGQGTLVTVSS
VL: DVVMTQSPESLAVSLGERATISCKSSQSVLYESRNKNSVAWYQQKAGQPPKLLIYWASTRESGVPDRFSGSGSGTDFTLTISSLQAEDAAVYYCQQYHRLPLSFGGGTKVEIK

The parent's heavy chain CDRs are GFTLNSYGIS, VIYSDGRRTFYGDSVK, GRAAGTFDS; each variant's own CDRs replace them letter for letter.
Numbers give log10(Kd / nM), so 0 is 1 nM and 3 is 1 µM. Smaller is tighter.
Averages over replicates are reported, and they cover detected replicates only.
"ND" marks a missing value. The strain was present, yet no cells mated with the target were sequenced in that replicate, which points to weak or no binding.

| CDR-H1 | CDR-H2 | CDR-H3 | group | log10 Kd (nM) by replicate | log10 Kd (nM), mean | control signals |
|---|---|---|---|---|---|---|
| GFSLNSYGIS | VIYSDGRRTFYTDSVK | GRTAGTFDS | GPLM_Gen | 1.60 ND 1.57 4.00 1.64 2.59 | 2.28 | 0/18 |
| GFSIDEYGIS | VIYADGSRQVYQNKVK | GKGTGYATL | En_Gibbs | ND 2.95 ND ND ND ND | 2.95 | 0/18 |
| GFSLNSYGIS | VIYSDGRRTFYMDSVK | GEAAGTFDS | GPLM_Gen | 1.28 1.67 1.00 1.76 0.81 1.28 | 1.30 | 0/18 |
| GFDLNEYGIS | VIYADGQRTVYADSVK | GNVAGTFDM | En_Gen | 0.01 -0.34 -0.24 -0.48 -0.55 0.03 | -0.26 | 0/18 |
| GFDLNEYGIS | VIYADGMRTQYIDSVK | GNAAGTFDT | En_HC | -0.22 -0.79 0.82 -0.73 0.10 0.18 | -0.11 | 0/18 |
| GFDINEYGIS | VIYADGRRTQYADSVK | GEAAGTFDL | En_HC | 0.32 -0.28 0.74 -0.28 -0.52 ND | -0.01 | 0/18 |
| KFNIEEYGIS | VIYADGKRTSYSNAVK | GNQGRTFNT | En_Gibbs | ND 2.36 ND 3.57 1.99 ND | 2.64 | 0/18 |
| NFTLNSYGIS | VIYSDGRRTFYDDSVK | GQLAGTFDS | GPLM_HC | ND ND ND ND ND ND | ND | 0/18 |
| GFTLNDYGIS | VIYSDGRRFQYIDSVK | GRAAGTFDS | Rand | ND ND ND ND ND ND | ND | 0/18 |
| EFDLNEYGIS | VIYADGHRSFYADHVK | GQVAGIFDM | En_Gibbs | 2.16 2.39 1.40 ND 1.91 2.00 | 1.97 | 1/18 (1.92) |
| GGTLNSTGIS | VIYSDGRRTFASDSVK | GAAGGTFDS | Rand | ND ND ND ND ND ND | ND | 0/18 |
| GQDLNEYGIS | VIYADGKRTAYLQNVK | GVNAGFDQY | En_Gibbs | ND ND ND ND ND ND | ND | 0/18 |
| GFWLNSYGIS | VIYSDGRRTAYGDSVK | GRTAGTFDS | GPLM_Gibbs | 1.51 0.77 2.10 0.97 1.26 ND | 1.32 | 0/18 |
| GFPIDEYGIS | VIYADGRRTVYSDNVK | GNYMASGKI | En_Gibbs | ND ND ND ND ND ND | ND | 0/18 |
| GFTLNSYGIS | VIYADGRRTFYGDSVD | GRAIGTFDS | Ctrl | ND ND ND ND ND 2.46 | 2.46 | 0/18 |
| GFWLNSYGIS | VIYSDGRRTFYGDSVK | GRHAGLFDS | Ctrl | ND ND ND ND ND ND | ND | 0/18 |
| GFDLNEYGIS | VIYADGRRTAYADSVK | GANAGTFDV | En_Gen | -0.59 -0.72 -0.77 -0.86 -0.71 -0.46 | -0.68 | 0/18 |
| GFTLSEYGIS | VIYADGVRVEYTQSVK | GQLGGSFLV | En_Gibbs | ND ND ND ND ND ND | ND | 0/18 |
| GFGLNEYGIS | VIYSDGRRTFYGDSVK | GRVAGTFDS | GP_Gen | 1.43 0.27 0.31 0.23 0.78 1.03 | 0.68 | 0/18 |
| GFTLNSYGIS | VIYSDGRRTFYSDSVK | GRAAGTFDV | Ctrl | 0.56 0.49 0.93 0.19 0.65 0.90 | 0.62 | 0/18 |
| GFTLNEYGLS | VIYSDGRRTFYTDSVK | GRFAGTFDS | Rand | ND ND 1.92 ND 2.90 ND | 2.41 | 0/18 |
| GFTLNEYGIS | VIYSDGRRTFYTDSVK | GKQAGTFDS | GP_HC | 0.35 0.65 -0.15 0.29 0.23 0.28 | 0.27 | 1/18 (1.16) |
| GFDLNEYGIS | VIYADGVRTAYIDSVK | GQVAGTFDV | En_Gen | 0.13 -0.34 -0.24 -0.47 -0.53 -0.09 | -0.26 | 1/18 (1.67) |
| GFQLDEYGIS | VIYADGMRTAYADSFK | GNKSVIIGI | En_Gibbs | ND ND ND ND ND ND | ND | 0/18 |
| GFNLSEYGIS | VIYADGKKTQYSNAVK | GANGGYFNV | En_Gibbs | ND 1.16 ND ND ND ND | 1.16 | 0/18 |
| GFHLNDYGIS | VIYSDGRRTFYIDSVK | GRMAGTFDS | GP_HC | 1.55 2.00 2.05 1.53 1.62 2.00 | 1.79 | 0/18 |
| GFSLNSYGIS | VIYSDGRRTFYVDSVK | GQTAGTFDA | GP_Gibbs | 1.34 0.35 1.48 0.14 0.07 1.95 | 0.89 | 0/18 |
| GFEMNSYGIS | VIYSDGRRTFYGDSVR | GRAAGTFDQ | Ctrl | ND ND 1.85 ND 3.36 ND | 2.60 | 1/18 (2.44) |
| GFDLNDYGIS | VIYSDGRRTFYGDSVK | GDAAGTFDS | Ctrl | 0.98 0.09 0.38 0.39 0.20 0.36 | 0.40 | 0/18 |
| GFTLESYGIS | VIYSDGRRTFYGDSVK | GQEAGTFDT | GP_Gen | 1.22 0.42 0.66 0.36 0.67 1.17 | 0.75 | 0/18 |
| GFDIEKYGIS | VIYADGQRSAYASSVK | GHEAGNFHV | En_Gibbs | ND ND ND ND ND ND | ND | 0/18 |
| GFDLDEYGIS | VIYADGKRTAYVDSVK | GNNAGTFDV | En_Gen | 0.18 1.11 0.27 -0.15 0.29 0.31 | 0.34 | 0/18 |
| GFQLNSYGIS | VIYSDGRRTFYADSVK | GKVAGTFDS | GP_Gen | 0.39 -0.18 -0.15 -0.03 0.07 0.12 | 0.03 | 0/18 |

Excerpt, the first 5 entries:

{"CDR-H1": "GFSLNSYGIS", "CDR-H2": "VIYSDGRRTFYTDSVK", "CDR-H3": "GRTAGTFDS", "group": "GPLM_Gen", "log10 Kd (nM) by replicate": "1.60 ND 1.57 4.00 1.64 2.59", "log10 Kd (nM), mean": "2.28", "control signals": "0/18"}
{"CDR-H1": "GFSIDEYGIS", "CDR-H2": "VIYADGSRQVYQNKVK", "CDR-H3": "GKGTGYATL", "group": "En_Gibbs", "log10 Kd (nM) by replicate": "ND 2.95 ND ND ND ND", "log10 Kd (nM), mean": "2.95", "control signals": "0/18"}
{"CDR-H1": "GFSLNSYGIS", "CDR-H2": "VIYSDGRRTFYMDSVK", "CDR-H3": "GEAAGTFDS", "group": "GPLM_Gen", "log10 Kd (nM) by replicate": "1.28 1.67 1.00 1.76 0.81 1.28", "log10 Kd (nM), mean": "1.30", "control signals": "0/18"}
{"CDR-H1": "GFDLNEYGIS", "CDR-H2": "VIYADGQRTVYADSVK", "CDR-H3": "GNVAGTFDM", "group": "En_Gen", "log10 Kd (nM) by replicate": "0.01 -0.34 -0.24 -0.48 -0.55 0.03", "log10 Kd (nM), mean": "-0.26", "control signals": "0/18"}
{"CDR-H1": "GFDLNEYGIS", "CDR-H2": "VIYADGMRTQYIDSVK", "CDR-H3": "GNAAGTFDT", "group": "En_HC", "log10 Kd (nM) by replicate": "-0.22 -0.79 0.82 -0.73 0.10 0.18", "log10 Kd (nM), mean": "-0.11", "control signals": "0/18"}

The authors averaged sequences with at least three values out of six and counted those with two or fewer as poor binders.
Values of this round are not directly comparable with the first-round values of the same sequences.
As a blank, each scFv also met three strains without target: over all heavy chain designs, 1% of these pairings were detected, typically at 2.08 and seldom below 0.84. The control count says in how many pairings with the empty strains this scFv gave a signal, with their mean in brackets.

Reference: Li et al. 2023, doi:10.1038/s41467-023-39022-2. File: FLAb, binding data.